Source: patent publication US20190231847A1, “TREATMENT OF OCULAR DISEASE” (priority 2016, published 2019)

Legend:
retinal inflammation [1] = test: Mouse EAU model, histopathology (H&E) and histological score; type: in vivo, C57BL/6J mice; conditions: ALM201 3 mg/kg; Dexamethasone 0.5 mg/kg; Dexamethasone 0.5 mg/kg+ALM201 0.3 mg/kg
From the text: On day 24 p.i., fundus images were taken from all experimental mice using the TEFI system. Mice were then sacrificed by CO2 inhalation and eyes were carefully removed. All eyes were fixed in 2.5% (w/v) glutaraldehyde (Agar Scientific Ltd, Cambridge, UK) for 2 days at room temperature. Eyes were embedded in paraffin for standard H&E staining. Histological scores of retinal inflammation were graded using a standard scoring system described previously (Dick A. D., Cheng Y. F., Liversidge J., Forrester J. V., 1994. Immunomodulation of experimental autoimmune uveoretinitis: a model of tolerance induction with retinal antigens. Eye 8 (Pt 1), 52-59, incorporated herein by reference). Retinal sections from at least three different layers from each eye were used for histopathological analysis. The average score from three layers was used as the final pathological score of the eye.

retinal inflammation [2] = test: Mouse experimental autoimmune uveitis (EAU) model, clinical score from fundus images (TEFI); conditions: day 24 p.i.; ALM201 3 mg/kg; Dexamethasone 0.5 mg/kg; ALM201 0.3 mg/kg+Dexamethasone 0.5 mg/kg

IRQQPRDPPTETLELEVSPDPAS (listed as Homo Sapiens) [ALM201]
Retinal histology in eyes with mild inflammation prior to treatment (retinal inflammation [1]): only few infiltrating cells were observed and retinal structures including POS were largely preserved
Retinal histology in eyes with severe inflammation prior to treatment (retinal inflammation [1]): a few infiltrating cells with retinal scars were observed
Large infiltrates around retinal blood vessels in fundus images (retinal inflammation [2]): rarely observed
